Consider one molecule from patent US11844794B2, “Pharmaceutical compositions” (ADEPTIO PHARMACEUTICALS LIMITED, priority 2017, dated 2023).

Amino acid sequences for entries named in this document (tags omitted).
UniProt Q05940, whole entry: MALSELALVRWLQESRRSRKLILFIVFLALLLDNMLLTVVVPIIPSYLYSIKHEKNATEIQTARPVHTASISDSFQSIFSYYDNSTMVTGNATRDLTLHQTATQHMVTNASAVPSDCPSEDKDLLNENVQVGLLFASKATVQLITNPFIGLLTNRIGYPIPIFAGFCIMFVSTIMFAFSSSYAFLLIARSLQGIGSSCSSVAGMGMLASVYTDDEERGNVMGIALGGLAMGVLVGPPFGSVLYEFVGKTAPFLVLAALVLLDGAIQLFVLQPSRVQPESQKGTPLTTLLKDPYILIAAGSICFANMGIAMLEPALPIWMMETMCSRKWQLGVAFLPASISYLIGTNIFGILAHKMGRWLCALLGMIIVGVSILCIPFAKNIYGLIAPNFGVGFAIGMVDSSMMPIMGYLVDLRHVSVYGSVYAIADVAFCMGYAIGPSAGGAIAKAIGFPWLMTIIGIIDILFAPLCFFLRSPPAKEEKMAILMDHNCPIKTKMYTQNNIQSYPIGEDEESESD

The assay has as its target T1, VMAT2 (Homo sapiens, UniProt Q05940).
T1 construct: from tissue; host or cells: living human volunteers (in vivo PET scan)
Description: % VMAT2 blocking by PET scan in human volunteers. Format: in vivo. Particulars: average plasma levels of less than 15 ng/ml during the period of PET scanning. An excerpt: Complete blocking of the VMAT2 proteins is considered undesirable as this can lead to unwanted side effects, such as Parkinsonism. […] The levels of VMAT2 blocking can be determined by competitive binding studies using Positron Emission Tomography (PET). By co-administering a radioactive ligand with the compound of interest at various concentrations, the proportion of binding sites occupied can be determined (see for example, Matthews et al., “Positron emission tomography molecular imaging for drug development”, Br. J. Clin. Pharmacol., 73:2, 175-186).
(+)-α-Dihydrotetrabenazine in amounts was administered by oral dosing to five human volunteers. In four of the volunteers, blood sample were taken at 30, 60, 120 and 180 minutes after drug administration. Blood samples were not taken from the fifth volunteer. At 60 minutes after drug administration, PET scans were initiated and these were stopped at 120 minutes after drug administration.
The experiment was carried out at dosages of 7.5 mg, 15 mg and 22.5 mg.

`COc1cc2c(cc1OC)[C@H]1C[C@@H](O)[C@H](CC(C)C)CN1CC2` [(+)-α-dihydrotetrabenazine, (2R,3R,11bR)-3-isobutyl-9,10-dimethoxy-1,3,4,6,7,11b-hexahydro-2H-pyrido[2,1,a]isoquinolin-2-01]: the “% VMAT2 binding” value is “at least 50%”.
